Assay results from patent US20250321223A1, “ENGINEERING CHEMICALLY INDUCIBLE SPLIT PROTEIN ACTUATORS (CISPA)” (KEMIJSKI INSTITUT, priority 2021, published 2025).

By UniProt entry, the sequences of proteins in these tests, tags left out. Where a name states a change or a piece, a line headed by the entry shows the natural chain unless it says otherwise.
UniProt Q92731: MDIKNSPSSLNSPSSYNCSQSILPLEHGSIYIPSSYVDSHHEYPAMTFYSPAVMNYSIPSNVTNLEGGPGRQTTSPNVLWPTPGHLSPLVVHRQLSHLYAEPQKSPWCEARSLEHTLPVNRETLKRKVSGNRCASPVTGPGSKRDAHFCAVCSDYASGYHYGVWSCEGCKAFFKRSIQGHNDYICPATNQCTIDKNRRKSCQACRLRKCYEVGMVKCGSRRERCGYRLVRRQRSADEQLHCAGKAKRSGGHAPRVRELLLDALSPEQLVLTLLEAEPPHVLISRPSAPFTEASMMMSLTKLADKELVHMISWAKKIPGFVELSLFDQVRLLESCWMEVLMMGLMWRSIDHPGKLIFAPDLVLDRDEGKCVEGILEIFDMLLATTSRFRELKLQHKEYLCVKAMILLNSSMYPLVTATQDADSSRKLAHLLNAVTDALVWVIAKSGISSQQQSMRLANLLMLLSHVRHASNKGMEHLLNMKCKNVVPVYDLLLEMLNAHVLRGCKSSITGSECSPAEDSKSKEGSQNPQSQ

Target: split ligand binding domain of estrogen receptor beta (ERβ) (Homo sapiens, UniProt Q92731)
Conditions: HEK293T cells, increasing ligand concentration, compared to cells not stimulated; FIG. 2C

C[C@]12CC[C@@H]3c4ccc(O)cc4CC[C@H]3[C@@H]1CC[C@@H]2O [17β-estradiol]
firefly luciferase activity (dimerization of split ERβ CISPA sensor): an increase in firefly luciferase activity is observed
